Test system: HEK 293 cells co-expressing MOR1D and GRPR

Substance: D-Phe-6-Bn(6-13)OMe [GRPR antagonist]
- effect on GRP-induced calcium spikes: completely blocked
